From PubChem BioAssay AID504414 (Broad Institute, 2011)
The entries are a selection whose mix differs from that of the whole data set. Some salts or complexes appear as unconnected parts, following the source record. Activity calls are given as the source filed them.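 Rule for the calls: active = highest replicate inhibition of at least 40%; inactive = the rest.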

biological target: Golgi-associated PDZ and coiled-coil motif-containing protein (Homo sapiens) (UniProt Q9HD26); assay: CAL PDZ peptide-binding inhibitors, primary screen, biochemical, fluorescence polarization, Cer-tagged CAL PDZ, HTS (AID 504414); details: purified CAL PDZ, TMR-peptide fluorescence polarization, 1 h; at 20 µM; stronger effect = higher value;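 note: plate controls were DMSO neutral control wells for no effect and unlabeled competitor peptide control wells for full effect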

SMILES	inhibition
Cc1cc(C)cc(OP(C)(=O)Nc2ccccn2)c1 (stereo not drawn)	inactive: -1.38%
CP(=O)(Nc1cccc(Br)c1)Oc1ccccc1 (stereo not drawn)	inactive: -1.75%
Cc1ccc(C)c(NP(C)(=O)Oc2ccccc2)c1 (stereo not drawn)	inactive: -0.241%
COc1ccccc1OP(C)(=O)Nc1cccc(Br)c1 (stereo not drawn)	inactive: -0.711%
Cc1cc(C)cc(OP(C)(=O)Nc2ccc(C)cc2C)c1 (stereo not drawn)	inactive: -0.866%
CCOC(=O)c1ccc(NP(C)(=O)Oc2cc(C)cc(C)c2)cc1 (stereo not drawn)	inactive: -1.77%
CC1=NCCc2c1[nH]c1ccccc21.O=[N+]([O-])c1cc([N+](=O)[O-])c(O)c([N+](=O)[O-])c1	inactive: -0.844%
O=C(O)c1cccc(Nc2c([N+](=O)[O-])cc([N+](=O)[O-])cc2[N+](=O)[O-])c1	inactive: -1.4%
CN1CCCCC1COC(=O)C1(O)c2ccccc2CCc2ccccc21 (stereo not drawn)	inactive: -2.75%
COc1ccccc1OP(C)(=O)Nc1c(C)cccc1C (stereo not drawn)	inactive: -2.06%
CCCOc1ccc(NP(C)(=O)Oc2ccc(Cl)cc2)cc1 (stereo not drawn)	inactive: -0.31%
CP(=O)(Nc1ccc(SC(F)(F)F)cc1)Oc1ccccc1 (stereo not drawn)	inactive: -2.31%
CCOC(=O)C(CC)C1=NC(C)(C)Cc2ccccc21.O=[N+]([O-])c1cc([N+](=O)[O-])c(O)c([N+](=O)[O-])c1 (stereo not drawn)	inactive: -2.2%
CC1=C2N=C(C=C3N=C(C(C)=C4[N-][C@@](C)([C@@H]5N=C1[C@](C)(CCC(=O)NC[C@@H](C)OP(=O)([O-])O[C@H]1[C@@H](O)[C@@H](n6cnc7cc(C)c(C)cc76)O[C@@H]1CO)[C@H]5CC(N)=O)[C@@](C)(CC(N)=O)[C@@H]4CCC(N)=O)[C@@](C)(CC(N)=O)[C@@H]3CCC(N)=O)C(C)(C)[C@@H]2CCC(N)=O.[C-]#N.[Co+3]	inactive: 0.59%
O=[N+]([O-])c1cc([N+](=O)[O-])c(Nc2nnnn2CCO)c([N+](=O)[O-])c1	inactive: -0.332%
O=[N+]([O-])c1cc([N+](=O)[O-])c(-c2cnn(-c3ccccc3)c2)c([N+](=O)[O-])c1	inactive: -0.308%
Cc1nc2ccc3ccccc3c2s1.O=[N+]([O-])c1cc([N+](=O)[O-])c(O)c([N+](=O)[O-])c1	inactive: -4.65%
O=[N+]([O-])c1cc([N+](=O)[O-])c(-n2nnc3ccccc32)c([N+](=O)[O-])c1	inactive: -0.518%
CCOP(C)(=S)SCC(=O)NC(C)C(=O)O (stereo not drawn)	inactive: 0.164%
CCOC(=O)c1ccc(NP(C)(=O)Oc2ccc(OC)cc2)cc1 (stereo not drawn)	inactive: -1.05%
CP(=O)(Nc1ccccn1)Oc1ccc(Cl)cc1 (stereo not drawn)	inactive: -0.983%
CP(=O)(Oc1ccccc1)OC(c1ccccc1)C(F)(F)F (stereo not drawn)	inactive: -1.22%

SMILES	inhibition
Cc1cccc(C)c1OP(C)(=O)Nc1ccc(SC(F)(F)F)cc1 (stereo not drawn)	inactive: 0.649%
Cc1cc(C)cc(OP(C)(=O)Nc2ccc(SC(F)(F)F)cc2)c1 (stereo not drawn)	inactive: 0.111%
CP(=O)(NC(=O)Nc1ccccc1)Oc1ccccc1 (stereo not drawn)	inactive: 0.284%
CCc1ccc(OP(C)(=O)N2CCN(c3ccc([N+](=O)[O-])cc3)CC2)cc1 (stereo not drawn)	inactive: -1.05%
CP(=S)(Nn1cnnc1)Oc1ccccc1 (stereo not drawn)	inactive: -1.62%
COc1ccccc1OP(C)(=O)Nc1ccccc1 (stereo not drawn)	inactive: -1.76%
CP(=O)(Nc1ccccc1Br)Oc1ccccc1 (stereo not drawn)	inactive: -0.251%
CCOC(=O)c1ccc(NP(C)(=O)Oc2ccccc2)cc1 (stereo not drawn)	inactive: 0.133%
Cc1ccc(NP(C)(=O)Oc2ccccc2)c(C)c1 (stereo not drawn)	inactive: -1.92%
COc1ccccc1OP(C)(=O)Nc1ccc(C)cc1 (stereo not drawn)	inactive: 1.95%
COc1ccc(OP(C)(=O)Nc2cccc(F)c2)cc1 (stereo not drawn)	inactive: -2.13%
COc1ccccc1OP(C)(=O)Nc1cc(Cl)ccc1C (stereo not drawn)	inactive: -0.303%
Cc1cc(C)cc(OP(C)(N)=O)c1 (stereo not drawn)	inactive: -1.25%
O=[N+]([O-])c1cc([N+](=O)[O-])c(Nc2cccnc2)c([N+](=O)[O-])c1	inactive: 1%
Cc1cccc(C)c1OP(C)(N)=O (stereo not drawn)	inactive: -1.98%
CC(C)(C)c1ccc(OP(C)(=O)Nc2ccc(SC(F)(F)F)cc2)cc1 (stereo not drawn)	inactive: -0.574%
O=[N+]([O-])c1ccc2c(c1)C=Nc1ccccc1O2	inactive: 0.263%
CCN(CC)CCCOC(=O)C(O)(c1ccccc1)c1ccccc1	inactive: -0.361%
Cc1c(NP(C)(=O)Oc2ccc(C(C)C)cc2)c(=O)n(-c2ccccc2)n1C (stereo not drawn)	inactive: -2.44%
O=[N+]([O-])c1cc([N+](=O)[O-])c(Nc2ccccn2)c([N+](=O)[O-])c1	inactive: -20.1%
CCc1ccc(OP(C)(=O)O)cc1	inactive: 0.181%
COc1ccccc1OP(C)(=O)Nc1ccc(C)cc1C (stereo not drawn)	inactive: -0.572%

SMILES	inhibition
CP(=O)(Nc1ccccn1)Oc1ccccc1 (stereo not drawn)	inactive: -0.542%
COc1ccccc1OP(C)(=O)Nc1ccc(Br)cc1 (stereo not drawn)	inactive: -0.0146%
CN(C)CCOC(=O)C(O)(c1ccccc1)C1CCCC1 (stereo not drawn)	inactive: 1.51%
COc1ccc(OP(C)(=O)Nc2ccccn2)cc1 (stereo not drawn)	inactive: -2.71%
CP(=O)(Nc1ccc(Cl)cc1Cl)Oc1ccccc1 (stereo not drawn)	inactive: -0.748%
CCCCCCCCCCCCCCCC1C[N+](C)(C)CCOP(C)(=O)O1 (stereo not drawn)	inactive: -1.83%
CP(=O)(OCCOc1ccccc1)OCCOc1ccccc1	inactive: -6.34%
Cc1cc(C)cc(OP(C)(=O)Nc2cccc(C(F)(F)F)c2)c1 (stereo not drawn)	inactive: 0.104%
O=C1C(O)=C([N+](=O)[O-])C(=O)C(O)=C1[N+](=O)[O-]	inactive: -0.295%
COc1ccc(OP(C)(=O)Nc2ccccc2Br)cc1 (stereo not drawn)	inactive: -0.32%
CP(=O)(OC12CC3CC(CC(C3)C1)C2)OC12CC3CC(CC(C3)C1)C2	inactive: -0.891%
CCOC(=O)c1ccc(NP(C)(=O)Oc2ccc(Cl)cc2)cc1 (stereo not drawn)	inactive: -3.22%
CP(=O)(Nc1ccc(Cl)cc1)Oc1ccc(F)cc1 (stereo not drawn)	inactive: -2.32%
COc1ccccc1OP(C)(=O)Nc1ccccc1Br (stereo not drawn)	inactive: -0.283%
CC(C)(C)c1ccc(OP(C)(=O)O)cc1	inactive: 0.0824%
CN(C)C(=O)c1c([N+](=O)[O-])cc([N+](=O)[O-])cc1[N+](=O)[O-]	inactive: 15.2%
COc1ccc(OP(C)(=O)Nc2ccc(Br)cc2)cc1 (stereo not drawn)	inactive: -0.173%
CCN(CC)CC(O)COC(=O)C(O)(c1ccccc1)C1CCCCC1 (stereo not drawn)	inactive: -0.247%
CCc1ccc(OP(C)(=O)Nc2cccnc2)cc1 (stereo not drawn)	inactive: -0.103%
CP(=O)(Oc1ccccc1)N1CCOC1=O (stereo not drawn)	inactive: 0.533%
O=C(OCCCN1CCCC1)C(O)(c1ccccc1)C1CCCCC1 (stereo not drawn)	inactive: 0.305%
COc1ccccc1OP(C)(=O)Nc1c(C)n(C)n(-c2ccccc2)c1=O (stereo not drawn)	inactive: -0.954%

SMILES	inhibition
CP(=O)(Nc1ccc2c(c1)OCCO2)Oc1ccccc1 (stereo not drawn)	inactive: 0.56%
Cc1ccccc1NP(C)(=O)Nc1ccccc1C	inactive: 0.0908%
CP(=O)(Nc1ccc(SC(F)(F)F)cc1)Oc1ccc(F)cc1 (stereo not drawn)	inactive: -0.99%
CCOP(C)(=S)SCC(=O)NC(C)(CC)C(=O)O (stereo not drawn)	inactive: -2.71%
O=[N+]([O-])c1cc([N+](=O)[O-])c(NCC2CCS(=O)(=O)C2)c([N+](=O)[O-])c1 (stereo not drawn)	inactive: -1.9%
Cc1cc(-c2cccc3ccccc23)c(C)cn1.O=[N+]([O-])c1cc([N+](=O)[O-])c(O)c([N+](=O)[O-])c1	inactive: -1.68%
O=[N+]([O-])c1ccc(OP2(=O)COCCO2)cc1 (stereo not drawn)	inactive: 0.725%
Cc1c(C(c2ccc3c(c2)OCO3)c2c(C)n(C)n(-c3ccccc3)c2=O)c(=O)n(-c2ccccc2)n1C.O=[N+]([O-])c1cc([N+](=O)[O-])c(O)c([N+](=O)[O-])c1	inactive: 1.67%
COc1ccc(NP(C)(=O)Oc2ccccc2OC)cc1 (stereo not drawn)	inactive: 0.423%
CN(C)CCOC(=O)C(O)(c1ccccc1)C1CCCCC1 (stereo not drawn)	inactive: 0.63%
CCN(CC)CCCOC(=O)C(O)(c1ccccc1)C1CCCCC1 (stereo not drawn)	inactive: -0.473%
Cc1c([N+](=O)[O-])cc([N+](=O)[O-])c(Br)c1[N+](=O)[O-]	inactive: 0.571%
O=[N+]([O-])c1cc([N+](=O)[O-])c(OC2CCCCC2O)c([N+](=O)[O-])c1 (stereo not drawn)	inactive: 0.0933%
CCCCCOc1ccc(NP(C)(=O)Oc2ccc(Cl)cc2Cl)cc1 (stereo not drawn)	inactive: 1.79%
CP(=O)(Nc1ccccc1)Oc1ccc(F)cc1 (stereo not drawn)	inactive: -2.96%
COc1ccc(OP(C)(=O)Nc2ccc(SC(F)(F)F)cc2)cc1 (stereo not drawn)	inactive: -0.0447%
CCOC(=O)c1ccc(NP(C)(=O)Oc2ccc(F)cc2)cc1 (stereo not drawn)	inactive: 0.346%
O=C(OCCN1CCN(CCOCc2ccccc2)CC1)C(O)(c1ccccc1)c1ccccc1	inactive: -2.08%
O=C(OC1CN2CCC1CC2)c1ccc([N+](=O)[O-])cc1 (stereo not drawn)	inactive: -1.2%
COc1ccc2c(c1O)-c1c(O)c(OC)cc3c1[C@H](C2)[N+](C)(C)CC3.O=[N+]([O-])c1cc([N+](=O)[O-])c([O-])c([N+](=O)[O-])c1[O-]	inactive: -0.909%
CC(C)c1ccc(OP(C)(=O)Nc2ccc(SC(F)(F)F)cc2)cc1 (stereo not drawn)	inactive: -0.314%
CP(=O)(Nc1ccccc1F)Oc1ccccc1 (stereo not drawn)	inactive: -2%
